From publication PMC7684765 (Journal of medicinal chemistry, 2020)

Test system: PTZ-induced seizures in zebrafish larvae
Assay: Zebrafish PTZ-induced seizure model
Type: in vivo
Conditions: 10 μM

Structure (SMILES) | protection against PTZ-induced seizures (in words)
C#CCNC1=CC(=O)c2ccccc2C1=O [2h] | did not significantly reduce distance traveled
CC1=C(NCCC(C)(C)C)C(=O)c2ccccc2C1=O [5a, 2-((3,3-dimethylbutyl)amino)-3-methylnaphthalene-1,4-dione] | no protection
CC1=C(NCCC(C)C)C(=O)c2ccccc2C1=O [5b, 2-(isopentylamino)-3-methylnaphthalene-1,4-dione] | no protection
